The target in the assay is 5-hydroxytryptamine receptor 6 (Homo sapiens, UniProt P50406). Put plainly: Binding affinity for human 5-hydroxytryptamine 6 receptor expressed in HEK 293 human embryonic kidney cells, [3H]-lysergic acid diethylamide as radioligand. The class given is cell-based, HEK293.

The chains behind the UniProt entries cited, without tags or fusion partners.
UniProt P50406, whole entry: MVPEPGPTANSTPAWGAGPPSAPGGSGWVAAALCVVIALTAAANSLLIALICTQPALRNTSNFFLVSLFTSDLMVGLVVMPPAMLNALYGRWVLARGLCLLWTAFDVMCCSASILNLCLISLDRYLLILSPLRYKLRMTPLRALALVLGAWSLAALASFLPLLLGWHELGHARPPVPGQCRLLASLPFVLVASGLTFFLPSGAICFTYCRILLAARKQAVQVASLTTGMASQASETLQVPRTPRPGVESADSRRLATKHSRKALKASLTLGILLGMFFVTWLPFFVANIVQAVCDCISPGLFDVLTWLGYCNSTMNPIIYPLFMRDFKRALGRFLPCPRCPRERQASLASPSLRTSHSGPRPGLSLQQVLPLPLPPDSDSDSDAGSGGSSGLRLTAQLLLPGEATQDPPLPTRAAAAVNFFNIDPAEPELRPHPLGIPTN

As to `COc1ccc2[nH]cc(CCN(C)C)c2c1` [MEBUFOTENIN], affinity was put at a Ki of 78 nM.

By Ki is commonly meant a measure of affinity in units of concentration, obtained from inhibition or displacement. The low end stands for tighter binding, the high end for weaker binding.

These data come from ChEMBL document CHEMBL1133711 (J Med Chem, 2000).
